The series is described as follows: Solubility in acyl morpholines. In kind it is physicochemical. The conditions noted are these: 23° C. As to the method: Various agriculturally active ingredients were dissolved in N-formyl morpholine, N-acetyl morpholine and N-propionyl morpholine in order to evaluate the solubility of the active ingredients in the solvents. This was done by adding the active ingredient to a beaker and thereafter adding the solvent until a clear solution was obtained. The solutions were continually stirred at a temperature of 23° C. during the experiments. When everything had been dissolved, the beakers were left without stirring for 24 h to see if the solution was stable (i.e. no crystallization).

Regarding `CC(C)c1nn(C(=O)NC(C)(C)C)c(=O)n1N` [Amicarbazone], the “Dissolution of active ingredient into N-acetyl morpholine (NAM)” value is on record as 24 grams of active ingredient in 100 g solvent, the “Dissolution of active ingredient into N-formyl morpholine (NFM)” value is given as 26 grams of active ingredient in 100 g solvent and the “Dissolution of active ingredient into N-propionyl morpholine (NPM)” value is 24 grams of active ingredient in 100 g solvent.

Take `Cc1cc(Cl)ccc1OCC(=O)O` [MCPA]: the “Dissolution of active ingredient into N-acetyl morpholine (NAM)” value is >100 grams of active ingredient in 100 g solvent, the “Dissolution of active ingredient into N-formyl morpholine (NFM)” value is reported as >100 grams of active ingredient in 100 g solvent and the “Dissolution of active ingredient into N-propionyl morpholine (NPM)” value is on record as >100 grams of active ingredient in 100 g solvent.

Values taken from US8791145B2, “Agricultural formulations with acyl morpholines and polar aprotic co-solvents” (Akzo Nobel Chemicals International B.V., priority 2010, dated 2014).
